Apparent affinities of Ab-14 variants for a coronavirus HR2 peptide

Target peptide (SARS-CoV-2 spike, HR2 region): PDVDLGDISGINAS

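Phage display of a naive human antibody library on the peptide gave the parent. The library (AAYL50) carries one to three amino acid substitutions per variant, with no insertions or deletions. Affinity was read by AlphaSeq, a pooled yeast mating assay with surface-displayed partners. After mating in shaken culture at 30 °C for 16 h, diploids were selected and their barcode pairs sequenced. Scores were corrected for input abundance and mapped to Kd with protein pairs of known affinity run in the same pool. Mating was done three times.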

Each scFv is VH, three GGGGS repeats, VL, as in the parent Ab-14, and differs from it in the CDRs of the light chain only.
VH: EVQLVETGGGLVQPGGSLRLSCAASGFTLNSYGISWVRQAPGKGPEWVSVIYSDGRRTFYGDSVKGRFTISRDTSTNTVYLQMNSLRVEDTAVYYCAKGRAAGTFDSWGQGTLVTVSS
VL: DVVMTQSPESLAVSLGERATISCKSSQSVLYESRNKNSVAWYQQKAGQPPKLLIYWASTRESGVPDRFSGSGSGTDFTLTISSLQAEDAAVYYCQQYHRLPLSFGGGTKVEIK

Variants are written as CDR1, CDR2 and CDR3 of the light chain (limits as in the source). Parent: KSSQSVLYESRNKNSVA, WASTRES, QQYHRLPLS.
This list gathers variants with a substitution at S28 (VL, numbered from residue 1).
Values are log10 of the apparent Kd in nM; lower means stronger binding.
A mean of the replicates is given; it leaves out those without a signal.
Where no diploid with the target was found in any replicate, the entry reads "not detected": below detection, most likely a poor binder, though not proof of it.
Background: pairings of library AAYL50 with three empty control strains gave a value in 18% of cases (median 4.19, 5th percentile 2.99). Values in that range, when seen in few replicates, are hard to tell from nonspecific mating. Also given: how often the same scFv was detected with the empty control strains.
Parent in this assay: reference entry 0.65, copy in this library 1.68.

CDR-L1,CDR-L2,CDR-L3,"log10 Kd (nM), mean",seen in,empty controls
KSSQEVLYESRNKNSVA,WISTRCS,QQYHRLPLS,not detected,0/3,0/9
KSSQIVLYENRNKNSVA,WALTRES,QQYHRLPLS,0.58,3/3,0/9
KSSQIVLYESRNKNSVA,WASTRES,PQMHRLPLS,3.02,3/3,2/9
KSSQKVLYESRNKNSMA,WRSTRES,QQYHRLPLS,not detected,0/3,0/9
CSSQKVLYESRNKNSVA,WQSTRES,QQYHRLPLS,not detected,0/3,0/9
KSSQKVLYESRNKNSVA,WASTRES,FQYHRLPLC,2.08,3/3,4/9
KSSQHVLVESRNKNSVA,WASTRES,QQYHRLPLS,2.36,3/3,0/9
KSSQQVLYESWNKNSVA,WASTRES,QKYHRLPLS,1.34,3/3,1/9
KSSQTVLYWSRNKNSLA,WASTRES,QQYHRLPLS,3.43,3/3,1/9
KSSQTVLYESRNKNSVA,WASTRES,QQYFRLPLS,3.85,2/3,2/9
KSSQKVLYESRNKWSVA,WASTRES,QQYHRLMLS,not detected,0/3,0/9
KSSQYVLYESRNKNSVA,WASARES,QTYHRLPLS,not detected,0/3,1/9
KSSQYVLYESRNRNSVA,WASTRES,QQYHRLSLS,4.71,2/3,3/9
KSSQWVLYESRNKKSVA,WASTRES,QQYHRLDLS,not detected,0/3,1/9
KSSQKVLYESRNKNSVA,WASTRES,QQYHRLPLS,1.65,3/3,5/9
FSSQLVLYESRNKNSVA,WASTRES,QQYHRLPLS,2.38,3/3,3/9
KSSQRVLYESRNKNSVL,MASTRES,QQYHRLPLS,not detected,0/3,0/9
KSSQPVLYESRNKNSVA,WASTGES,QQYRRLPLS,3.20,1/3,0/9
KSSQMVLYESRNKNSVA,WAWTRES,QTYHRLPLS,not detected,0/3,0/9
KSSQDVLYESRNKNSVA,WASTRES,QQYHRTPLS,0.58,3/3,0/9
KSSQIVLYESRNQNSVA,WATTRES,QQYHRLPLS,4.80,1/3,0/9
KSSQFVLYESRNKNSVA,WASTRES,QQYHQLNLS,not detected,0/3,1/9
KSSQKVLYESRNKNSVQ,WASTRES,QQYHRLPLE,not detected,0/3,0/9
KSSEHVLYESRKKNSVA,WASTRES,QQYHRLPLS,1.41,3/3,3/9
KSSQFVLYESRNKNSVL,WASTRES,QQYHRLPLQ,4.25,2/3,0/9
KYSQFVLYESRNKNSVA,WAKTRES,QQYHRLPLS,not detected,0/3,0/9
KGSQNVLYESYNKNSVA,WASTRES,QQYHRLPLS,1.20,3/3,1/9
KSSQFVLYESRNKNSAD,WASTRES,QQYHRLPLS,not detected,0/3,1/9
KSSQLVLYESRNKNSVR,NASTRES,QQYHRLPLS,not detected,0/3,0/9
KSSQLVLYESCNKNSVA,WASTRES,QQYLRLPLS,1.47,3/3,0/9
KSSATVLYESRNKNSVA,WASTRES,QHYHRLPLS,3.29,3/3,4/9
KSSQPVLYESRAKNDVA,WASTRES,QQYHRLPLS,2.62,3/3,3/9
KSSQVVLYASRNKNSVA,SASTRES,QQYHRLPLS,0.94,3/3,5/9
KSHQGVLYESRNKNSVA,WASTRES,QQYHRCPLS,0.97,3/3,3/9
KSSQCVLYESRNKNSVA,WAVERES,QQYHRLPLS,3.61,3/3,2/9
KSSQDVLYESRNKNSVA,WASTRES,QQYHTLPLS,0.52,3/3,0/9
KSSQPVLYESRNKNSVA,WASWRES,QQYHNLPLS,2.07,3/3,3/9
KSSQHVLQNSRNKNSVA,WASTRES,QQYHRLPLS,0.62,3/3,1/9
KHSQIVLYESRNKNSVA,WASTREY,QQYHRLPLS,not detected,0/3,1/9
KSSQLVLYESRNKNSVA,WASTRES,QQYHFLPLS,3.21,2/3,6/9
KSSQLVLMESRNKNSVA,NASTRES,QQYHRLPLS,0.14,3/3,2/9
KSSQMVSYESRNKNSVA,WASTRES,QQYHRLPLV,not detected,0/3,0/9
KSSQDVLYESRNKNSDA,WASTRES,QQYRRLPLS,not detected,0/3,1/9
KSSQGVLYESRNKNSVA,EASTRES,QFYHRLPLS,-0.06,3/3,0/9
KSSQHVLYHSRNKNSVI,WASTRES,QQYHRLPLS,4.43,1/3,3/9
KFSQYVLYESRNKNSVA,WESTRES,QQYHRLPLS,2.78,3/3,2/9
KSSQNSLYESRNKNSVA,WASTRES,QQVHRLPLS,4.61,3/3,4/9
KSSQCVLYESRNKNSVA,KASTRES,QQYHRLPLS,1.26,3/3,0/9
KSSQPVLYESRNKNSTA,WASKRES,QQYHRLPLS,not detected,0/3,0/9
KSSQLVLYESGNKNSVA,WASTRES,QKYHRLPLS,3.97,3/3,2/9
CSSQHVLYESRNKNSMA,WASTRES,QQYHRLPLS,2.41,1/3,0/9
KSSKCVLYESRNKNSVA,WASNRES,QQYHRLPLS,not detected,0/3,2/9
KSSQAVLYESRNKNSVM,WASMRES,QQYHRLPLS,not detected,0/3,0/9
KSSQVVLPESRNKNSVA,WASTRES,QGYHRLPLS,2.56,3/3,1/9
KSSQYVLYESVNKNSVA,WASTRES,NQYHRLPLS,1.28,3/3,1/9
KMSQPVLYESRNKNSVA,WASTRES,QQYHKLPLS,0.38,3/3,4/9
KSSQPVLYESRNKNYVA,WASTRES,QQYHRLGLS,not detected,0/3,2/9
KSSQVVLTESRNKNKVA,WASTRES,QQYHRLPLS,4.29,3/3,4/9
KSSQPVLSESRNKNSVA,WASTRMS,QQYHRLPLS,1.31,3/3,0/9
KSSQGVLYESRNKNSVA,WASTRES,QQAMRLPLS,2.14,3/3,2/9
KSSQQVLYESRNKLQVA,WASTRES,QQYHRLPLS,not detected,0/3,1/9

From the AlphaSeq antibody data of Engelhart et al. 2022 (doi:10.1038/s41597-022-01779-4), copy in the FLAb collection.